Source: PubChem BioAssay AID775 (SRMLSC, 2007)
The entries are a selection whose mix differs from that of the whole data set. Activity calls are given as the source filed them.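 Rule for the calls: active = inhibition above a set limit, placed 3 SD over the median of all compounds (cut at about 26% in these data); inactive = the rest.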

Assay: compounds extending yeast replicative lifespan, primary screen, S. cerevisiae, OD615 (AID 775);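 note: 0% = nicotinamide-treated wells and 100% = cells grown without nicotinamide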
Settings: S. cerevisiae growth with nicotinamide, at 10 µM, hits give high values, deaD strain in restrictive glucose medium
In the case of `Cc1nc2ccc3ccccc3c2o1.O=[N+]([O-])c1cc([N+](=O)[O-])c(O)c([N+](=O)[O-])c1`, the inhibition of the nicotinamide effect was inactive: -15.9%. In the case of `COc1ccccc1OP(C)(=O)Nc1ccc(C)c(C)c1` (stereo not drawn), the inhibition of the nicotinamide effect was inactive: -3.81%. For `COc1ccc(OP(C)(=O)Nc2ccccc2Br)cc1` (stereo not drawn), the inhibition of the nicotinamide effect was inactive: -0.31%. In the case of `Cc1c(NP(C)(=O)Oc2ccc(C(C)C)cc2)c(=O)n(-c2ccccc2)n1C` (stereo not drawn), the inhibition of the nicotinamide effect was inactive: -6.33%. With `COc1ccccc1OP(C)(=O)Nc1ccc(C)cc1C` (stereo not drawn) the inhibition of the nicotinamide effect was inactive: -17.3%. With `CP(=O)(Nc1ccccn1)Oc1ccccc1` (stereo not drawn) the inhibition of the nicotinamide effect was inactive: -7.09%. For `CCc1ccc(OP(C)(=O)O)cc1`, the inhibition of the nicotinamide effect was inactive: -15.7%. With `COc1ccc(OP(C)(=O)Nc2ccccn2)cc1` (stereo not drawn) the inhibition of the nicotinamide effect was inactive: -13.9%. For `CN(C)CCOC(=O)C(O)(c1ccccc1)C1CCCC1` (stereo not drawn), the inhibition of the nicotinamide effect was inactive: -7.04%. In the case of `CC(C)(C)c1ccc(OP(C)(=O)O)cc1`, the inhibition of the nicotinamide effect was inactive: -6.49%. With `CP(=O)(Nc1ccc(Cl)cc1)Oc1ccc(F)cc1` (stereo not drawn) the inhibition of the nicotinamide effect was inactive: -1.23%. For `COc1ccc(OP(C)(=O)Nc2ccc(Br)cc2)cc1` (stereo not drawn), the inhibition of the nicotinamide effect was inactive: 2.26%. With `CCN(CC)CC(O)COC(=O)C(O)(c1ccccc1)C1CCCCC1` (stereo not drawn) the inhibition of the nicotinamide effect was inactive: -7.99%. In the case of `CP(=O)(Oc1ccccc1)N1CCOC1=O` (stereo not drawn), the inhibition of the nicotinamide effect was inactive: -3.45%. With `CCOC(=O)c1ccc(NP(C)(=O)Oc2ccc(Cl)cc2)cc1` (stereo not drawn) the inhibition of the nicotinamide effect was inactive: -2.99%. With `CP(=O)(OC12CC3CC(CC(C3)C1)C2)OC12CC3CC(CC(C3)C1)C2` the inhibition of the nicotinamide effect was inactive: 0.59%. With `COc1ccc(OP(C)(=O)Nc2cccc(Br)c2)cc1` (stereo not drawn) the inhibition of the nicotinamide effect was inactive: 2.77%. In the case of `CN(C)CCOC(=O)C(O)(c1ccccc1)C1CCCCC1` (stereo not drawn), the inhibition of the nicotinamide effect was inactive: -13.8%. For `CP(=O)(Nc1ccc2c(c1)OCCO2)Oc1ccccc1` (stereo not drawn), the inhibition of the nicotinamide effect was inactive: -10.3%. With `Cc1ccccc1NP(C)(=O)Nc1ccccc1C` the inhibition of the nicotinamide effect was inactive: -13%. In the case of `CCOP(C)(=S)SCC(=O)NC(C)(CC)C(=O)O` (stereo not drawn), the inhibition of the nicotinamide effect was inactive: -14.6%. In the case of `O=C(OCCN1CCN(CCOCc2ccccc2)CC1)C(O)(c1ccccc1)c1ccccc1`, the inhibition of the nicotinamide effect was inactive: 4.87%. In the case of `CP(=O)(Nc1ccccc1F)Oc1ccccc1` (stereo not drawn), the inhibition of the nicotinamide effect was inactive: -4.49%. In the case of `CC(C)c1ccc(OP(C)(=O)Nc2ccc(SC(F)(F)F)cc2)cc1` (stereo not drawn), the inhibition of the nicotinamide effect was inactive: 9.52%. With `CP(=O)(Nc1ccccc1)Oc1ccc(F)cc1` (stereo not drawn) the inhibition of the nicotinamide effect was inactive: -12.3%. For `CCOC(=O)c1ccc(NP(C)(=O)Oc2ccc(F)cc2)cc1` (stereo not drawn), the inhibition of the nicotinamide effect was inactive: -0.94%. For `CC1=NCCc2c1[nH]c1ccccc21.O=[N+]([O-])c1cc([N+](=O)[O-])c(O)c([N+](=O)[O-])c1`, the inhibition of the nicotinamide effect was inactive: -4.58%. In the case of `Cc1ccc(C)c(NP(C)(=O)Oc2ccccc2)c1` (stereo not drawn), the inhibition of the nicotinamide effect was inactive: -4.3%. With `Cc1cc(C)cc(OP(C)(=O)Nc2ccccn2)c1` (stereo not drawn) the inhibition of the nicotinamide effect was inactive: -2.58%. For `CCOC(=O)c1ccc(NP(C)(=O)Oc2cc(C)cc(C)c2)cc1` (stereo not drawn), the inhibition of the nicotinamide effect was inactive: -0.59%. With `Cc1cc(C)cc(OP(C)(=O)Nc2ccc(C)cc2C)c1` (stereo not drawn) the inhibition of the nicotinamide effect was inactive: 0.78%. With `Cc1nc2ccc3ccccc3c2s1.O=[N+]([O-])c1cc([N+](=O)[O-])c(O)c([N+](=O)[O-])c1` the inhibition of the nicotinamide effect was inactive: -16.7%. With `COc1ccccc1OP(C)(=O)Nc1c(C)cccc1C` (stereo not drawn) the inhibition of the nicotinamide effect was inactive: -10.2%. With `CN1CCCCC1COC(=O)C1(O)c2ccccc2CCc2ccccc21` (stereo not drawn) the inhibition of the nicotinamide effect was inactive: 1.25%. With `CP(=O)(Nc1ccc(SC(F)(F)F)cc1)Oc1ccccc1` (stereo not drawn) the inhibition of the nicotinamide effect was inactive: 3.45%. With `CP(=S)(Nn1cnnc1)Oc1ccccc1` (stereo not drawn) the inhibition of the nicotinamide effect was inactive: -0.28%. For `CP(=O)(Nc1ccccc1Br)Oc1ccccc1` (stereo not drawn), the inhibition of the nicotinamide effect was inactive: 0.92%. For `CCOC(=O)c1ccc(NP(C)(=O)Oc2ccc(OC)cc2)cc1` (stereo not drawn), the inhibition of the nicotinamide effect was inactive: 5.62%. With `CCOP(C)(=S)SCC(=O)NC(C)C(=O)O` (stereo not drawn) the inhibition of the nicotinamide effect was inactive: -4.92%. In the case of `CP(=O)(Nc1ccccn1)Oc1ccc(Cl)cc1` (stereo not drawn), the inhibition of the nicotinamide effect was inactive: 0.26%. With `Cc1cccc(C)c1OP(C)(=O)Nc1ccc(SC(F)(F)F)cc1` (stereo not drawn) the inhibition of the nicotinamide effect was inactive: 4.63%. With `Cc1cc(C)cc(OP(C)(=O)Nc2ccc(SC(F)(F)F)cc2)c1` (stereo not drawn) the inhibition of the nicotinamide effect was inactive: -2.88%. For `CP(=O)(NC(=O)Nc1ccccc1)Oc1ccccc1` (stereo not drawn), the inhibition of the nicotinamide effect was inactive: -9.85%. For `Cc1ccc(NP(C)(=O)Oc2ccccc2)c(C)c1` (stereo not drawn), the inhibition of the nicotinamide effect was inactive: -6.29%. In the case of `COc1ccccc1OP(C)(=O)Nc1ccc(C)cc1` (stereo not drawn), the inhibition of the nicotinamide effect was inactive: -4.12%. For `CCOC(=O)c1ccc(NP(C)(=O)Oc2ccccc2)cc1` (stereo not drawn), the inhibition of the nicotinamide effect was inactive: 3.62%. For `COc1ccc(OP(C)(=O)Nc2cccc(F)c2)cc1` (stereo not drawn), the inhibition of the nicotinamide effect was inactive: -10.8%. With `CC(C)(C)c1ccc(OP(C)(=O)Nc2ccc(SC(F)(F)F)cc2)cc1` (stereo not drawn) the inhibition of the nicotinamide effect was inactive: 1.99%.
